According to US12616669B2, “Methods and chemical compositions for treating skin conditions by providing long lasting skin pH control for improving skin barrier function” (Soteri Skin, Inc., priority 2021, dated 2026):

Assay: Evaluation of various buffering systems on human skin
Settings: in vivo

## O=C(O)CO [glycolic acid]
  absorption by the skin: readily absorbed by the skin
